Measurements as given in US7217511B2, “Methods of increasing antibiotic production in Streptomyces by deletion of the scbA gene” (Plant Bioscience Limited, priority 2000, dated 2007).

Test system: ScbR
Assay: Gel retardation assay: ScbR binding to the scbA/scbR promoter fragment
Details: 1 μg (or equivalent amount) added; JM101/pIJ6120 crude extract; labelled scbA/scbR promoter fragment

## virginiae butanolides
  Formation of the DNA-protein complex (DNA-binding activity of ScbR): failed to inhibit
